Protein sequences, listed by entry. Tags and fused reporters are not part of them. Residues count along the entry.
UniProt Q63604, 32-821: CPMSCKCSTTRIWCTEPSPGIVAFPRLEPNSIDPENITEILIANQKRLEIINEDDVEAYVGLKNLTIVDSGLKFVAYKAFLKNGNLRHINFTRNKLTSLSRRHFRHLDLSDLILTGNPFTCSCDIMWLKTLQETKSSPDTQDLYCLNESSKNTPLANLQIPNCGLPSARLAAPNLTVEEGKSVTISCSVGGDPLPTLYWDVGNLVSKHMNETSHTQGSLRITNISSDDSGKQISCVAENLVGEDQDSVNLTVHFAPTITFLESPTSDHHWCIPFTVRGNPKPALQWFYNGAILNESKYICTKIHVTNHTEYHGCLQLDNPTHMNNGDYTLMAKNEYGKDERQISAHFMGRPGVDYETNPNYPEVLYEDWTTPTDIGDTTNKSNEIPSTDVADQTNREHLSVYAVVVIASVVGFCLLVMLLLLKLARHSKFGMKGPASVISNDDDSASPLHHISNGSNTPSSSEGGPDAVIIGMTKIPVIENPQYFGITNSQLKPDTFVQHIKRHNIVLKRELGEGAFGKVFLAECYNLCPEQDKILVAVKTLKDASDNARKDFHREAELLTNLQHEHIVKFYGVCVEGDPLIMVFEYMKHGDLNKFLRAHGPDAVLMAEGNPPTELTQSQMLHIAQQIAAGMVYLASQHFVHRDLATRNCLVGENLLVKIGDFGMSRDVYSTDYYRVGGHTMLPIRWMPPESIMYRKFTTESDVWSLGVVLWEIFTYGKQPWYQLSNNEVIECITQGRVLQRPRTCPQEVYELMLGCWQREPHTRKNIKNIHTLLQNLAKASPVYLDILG

According to patent US7196061B2, “Compounds that modulate neuronal growth and their uses” (priority 2003, dated 2007):

Experiments:
TrkB receptor [1] = biological target: T1, TrkB receptor (Rattus norvegicus, UniProt Q63604); assay: Neurite outgrowth assay, inhibition of the BDNF response; assay type: cell-based; details: BDNF 5 ng/ml; read-out: 50% inhibition of the BDNF response
T1 construct: endogenous in cells; host or cells: primary rat cerebellar neurons co-cultured on 3T3 fibroblast monolayers
Experimental: (§1) After 16 hours, the co-cultures were fixed and mean neurite length determined as has been previously described (Williams et al., J. Biol. Chem. 2000, 275:4007–4012).
(§2) To test this hypothesis, a cyclic version of the LIP was designed that was constrained by a disulfide bond and has the amino acid sequence: N-Ac-CRGEC-NH2(SEQ ID NO:9). The effect of this peptide on the BDNF and NT-4 response was tested in the above-described neurite outgrowth assay, with both NT ligands used at concentrations of 5 ng/ml.

TrkB receptor [2] = biological target: T1, TrkB receptor; assay: Neurite outgrowth assay, inhibition of the NT-4 response; assay type: cell-based; details: NT-4 5 ng/ml; read-out: 50% inhibition of the NT-4 response
Experimental: as §1, §2

## N-Ac-CRGEC-NH2
TrkB receptor [1]
  IC50: 144 ± 23 µM
TrkB receptor [2]
  IC50: 112 ± 22 µM
